Laboratory results taken from patent US20180051056A1, “SYNTHETIC MINIATURE PROTEIN SCAFFOLDS, PHARMACEUTICAL COMPOSITIONS AND METHODS OF USING SAME” (priority 2016, published 2018).

Conditions: temperature dependence of ellipticity at 228 nm; 100 μM, 1 mm path length, 10 mM PBS buffer, pH 7.5

Substance: Arg Cys Arg Val Arg Thr Ser Arg D-Pro Gly Tyr Asn Gly Xaa Trp Ser Pro Trp Cys, wherein Xaa is N-methoxyethyl glycine [cTp_XP]
- thermal stability of PPII-helical structure: slightly enhance the thermal stability

Substance: Arg Cys Arg Val Arg Thr Ser Arg D-Pro Gly Tyr Asn Gly Xaa Trp Ser Glu Trp Cys, wherein Xaa is N-methoxyethyl glycine [cTp_XE]
- thermal stability of PPII-helical structure: slightly enhance the thermal stability
